This series is described as follows: Solubility in distilled water. The conditions noted are these: in distilled water at 23 °C.

In paper PMC3116808 (Journal of natural products, 2011) one finds Solubility data, which are given here for two substances.

As a reminder, the Solubility is how much of the substance goes into solution per volume. Lower therefore signals a poorly soluble substance. Consider Nitroarginine Auristatin TP [3h], for which the Solubility is reported as 7 mg/mL. Take Morpholine Auristatin TP [3d]: the Solubility is recorded as above 72 mg/mL.
